Experiment [1] addresses T1, Cyclin-dependent kinase 12 (Homo sapiens, UniProt Q9NYV4). Conditions: dose 20.0 nM.
The target of experiment [2] is T1, Cyclin-dependent kinase 12. Conditions: dose 200.0 nM.
Experiment [3] concerns the target T1, Cyclin-dependent kinase 12. Conditions: dose 2000.0 nM.

Chains of the proteins cited; added tags and fusions are not shown.
UniProt Q9NYV4, whole entry, looked up: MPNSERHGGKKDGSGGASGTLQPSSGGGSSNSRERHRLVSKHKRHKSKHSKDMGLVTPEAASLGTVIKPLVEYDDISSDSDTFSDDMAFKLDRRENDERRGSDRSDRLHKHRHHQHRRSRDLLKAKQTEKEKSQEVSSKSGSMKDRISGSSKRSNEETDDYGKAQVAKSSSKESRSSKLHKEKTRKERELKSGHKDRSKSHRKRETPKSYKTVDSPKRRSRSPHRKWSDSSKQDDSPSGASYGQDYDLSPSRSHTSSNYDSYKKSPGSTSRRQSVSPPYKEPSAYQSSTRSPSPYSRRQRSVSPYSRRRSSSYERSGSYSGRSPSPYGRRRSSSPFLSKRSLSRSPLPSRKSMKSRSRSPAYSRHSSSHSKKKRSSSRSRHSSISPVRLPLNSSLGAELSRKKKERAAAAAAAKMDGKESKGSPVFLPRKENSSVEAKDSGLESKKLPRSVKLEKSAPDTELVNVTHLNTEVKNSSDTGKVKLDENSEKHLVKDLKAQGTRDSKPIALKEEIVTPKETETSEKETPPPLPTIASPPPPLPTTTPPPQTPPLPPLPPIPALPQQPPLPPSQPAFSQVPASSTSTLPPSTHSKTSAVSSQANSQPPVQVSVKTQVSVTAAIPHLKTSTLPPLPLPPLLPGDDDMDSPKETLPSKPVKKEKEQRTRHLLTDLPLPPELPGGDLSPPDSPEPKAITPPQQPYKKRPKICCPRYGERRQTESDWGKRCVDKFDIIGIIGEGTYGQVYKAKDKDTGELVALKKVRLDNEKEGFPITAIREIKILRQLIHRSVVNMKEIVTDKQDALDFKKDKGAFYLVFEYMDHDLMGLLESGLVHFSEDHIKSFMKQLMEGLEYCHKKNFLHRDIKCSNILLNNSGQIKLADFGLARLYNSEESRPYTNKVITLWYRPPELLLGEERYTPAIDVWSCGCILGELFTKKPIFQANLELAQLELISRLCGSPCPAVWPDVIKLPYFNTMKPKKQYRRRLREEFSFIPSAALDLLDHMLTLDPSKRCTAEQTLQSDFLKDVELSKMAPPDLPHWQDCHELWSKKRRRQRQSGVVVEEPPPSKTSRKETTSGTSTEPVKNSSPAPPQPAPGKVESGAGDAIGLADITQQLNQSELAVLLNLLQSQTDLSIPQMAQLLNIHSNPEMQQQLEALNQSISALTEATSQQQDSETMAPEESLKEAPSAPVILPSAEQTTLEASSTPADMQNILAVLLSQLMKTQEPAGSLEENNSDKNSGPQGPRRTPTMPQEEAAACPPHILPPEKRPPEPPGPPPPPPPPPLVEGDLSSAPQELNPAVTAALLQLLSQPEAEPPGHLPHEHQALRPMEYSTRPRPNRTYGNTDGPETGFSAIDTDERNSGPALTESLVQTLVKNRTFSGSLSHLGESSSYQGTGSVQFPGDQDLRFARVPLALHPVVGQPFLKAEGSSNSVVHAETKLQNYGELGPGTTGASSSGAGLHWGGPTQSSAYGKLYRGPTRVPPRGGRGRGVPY

One may read the inhibition as how much of the control response was suppressed. Regarding `Cn1cc(-n2cnc3c(NCc4nc5cc(Cl)c(Cl)cc5[nH]4)nc(N4CCOCC4)nc32)cn1`, the inhibition stood at 26.8% in experiment [1], 56.9% in experiment [2] and 91.2% in experiment [3].

Source of the values: ChEMBL document CHEMBL6114995, “Discovery of novel imidazo[1,2-b]pyridazine derivatives as potent covalent inhibitors of CDK12/13” (Eur J Med Chem, 2025).
